We go through one molecule from ChEMBL document CHEMBL1146608, “Design and synthesis of pseudo-symmetric HIV protease inhibitors containing a novel hydroxymethylcarbonyl (HMC)-hydrazide isostere” (Bioorg Med Chem Lett, 2003).

The assay concerns the target Human immunodeficiency virus type 1 protease (Human immunodeficiency virus 1, UniProt Q72874). Nature of the assay: Inhibitory activity against HIV-1 protease.

In the case of `Cc1cccc(C)c1OCC(=O)N[C@@H](Cc1ccccc1)[C@H](O)C(=O)N(Cc1ccccc1)NC(=O)COc1c(C)cccc1C`, the IC50 (in general, the midpoint of a concentration-inhibition curve) stood at 5 µM and the Ki (in general, a measure of affinity in units of concentration, obtained from inhibition or displacement) came to 5 µM.
